RAD52 anneal inh – RAD52 (human) annealing inhibition; P43351; recombinant RAD52 DNA annealing, FRET fluorescence; inhibition, % at 18.7 µM; 360,000 compounds, 0.46% hits;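 active means every replicate showing at least 50% inhibition; inconclusive means mean inhibition at least 50% but not in every replicate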
Yeast UUG start – alters start codon recognition fidelity in yeast. S. cerevisiae UUG-firefly luciferase reporter, luminescence/redox ratio. activity score, % at 18.7 µM. 0.13% of 350,000 active. AID 602363;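 active = replicate mean at a twofold rise or more, about +100% in these data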;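 also: firefly luciferase made from a UUG start codon reports start codon fidelity; reporter light over untreated wells divided by growth signal over untreated wells; some hits fall short of that in this replicate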
RAD54 inh – RAD54 (human) branch migration inhibition; Q92698; RAD54 Holliday junction branch migration, FAM/BHQ fluorescence; inhibition, % at 10.4 µM; 360,000 compounds, 0.14% hits; AID 602329;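 active means mean normalized replicate activity at least 40 and at least half of replicates scoring 40 or more; inconclusive means only one of the two criteria met; inactive means mean below 40 and under half of replicates reaching 40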;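 further: 0% = median of neutral control wells and 100% = median of positive control wells; inhibitors cause a drop in the FAM fluorescence signal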
SIRT5 inh – blocks human SIRT5 desuccinylation of peptide | Purified SirT5, succinyl-peptide AMC, trypsin-coupled fluorescence | inhibition, % at 15 µM | 330,000 compounds, 1.1% hits | AID 652115; in the data active means inhibition above about 15%; inconclusive means no clear call, values can overlap the other calls
E-sel inducer – E-selectin induction on HUVECs. HUVEC E-selectin immunofluorescence imaging; normalized: neutral wells 0, TNF-alpha wells 100. activation, % at 7.58 µM. 260,000 compounds, 0.37% hits. AID 686992;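 active means mean E-selectin-positive cell signal at least 10% of the positive control, reached in at least 60% of replicates, without over 20% cell loss; inconclusive means no rule given, readout overlaps actives, possibly toxicity-flagged; inactive means the rest, including those meeting only one limit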
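Test system: HUVEC | Signal: Immunofluorescence imaging | Read-out: Percent E-selectin-positive cells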
AF4-AF9 inh – inhibitors of human MLL-AF4/AF9 interaction. inhibition, % at 10 µM. AlphaScreen, biotin-AF4 peptide binding to FLAG-AF9. 350,000 compounds, 0.47% hits. P42568;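 active means every replicate reaching a set inhibition limit, whatever the replicate mean, cut at about 25% in these data; inconclusive means mean inhibition reaches that limit but some replicates miss it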;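 further: 0% = plate neutral control median and 100% = total signal loss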
DNA binding – counter-screen for Rad54 inhibitors: DNA binding compounds. shares compounds with RAD54 inh. Acridine orange-DNA displacement, fluorescence polarization, 20 min. 460 compounds, 8% hits. AC50, µM (doses to about 35 µM), without a hit: at the highest dose activity change, negative = DNA binding;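 active means signal drop giving an AC50 within twice the top valid tested concentration of each sample, actives reach about 35 µM in these data; inactive means activity opposite to expected, plus the rest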;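 further: polarization loss reports compound binding to salmon sperm DNA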
RAD52 DNA ctr – DNA binding artifact in RAD52 counter-screen. Salmon sperm DNA/acridine orange FP displacement. shares compounds with RAD52 anneal inh. AID 652128. AC50, µM. 1,000 compounds, 8% hits;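 active means fitted half-maximal concentration for signal loss at or below twice the highest dose tested, in every separate run, actives reach about 64 µM in these data; inconclusive means runs disagree, or flat partial signal loss, or poor fit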
* marks the source's active call; other numbers are inactive results; i = inactive; ? = inconclusive; / = not tested or not shown. Shown are actives, neighbours in structure and some others; about 1.8% of the full set was active somewhere.

SMILES	RAD52 anneal inh	Yeast UUG start	RAD54 inh	SIRT5 inh	E-sel inducer	AF4-AF9 inh	DNA binding	others
CCN(CC)CC(=O)Nc1cc(N(C)C)nc2ccccc12	31	-2	51*	-4	0	-6	-3%
CCOC(=O)c1c(CN2CCCCC2)n(C)c2cc(Br)c(OC)cc12	/	-7	?	/	/	/	-17%
CCCn1c(=N)c(C(=O)NC2CCCC2)cc2c(=O)n3cccc(C)c3nc21	/	-24	9	/	/	/	/
CCn1c(=N)c(C(=O)NC)cc2c(=O)n3cccc(C)c3nc21	/	-9	?	/	/	-5	0%
COc1ccc(NC(=O)N(C)C[C@H]2OCCCC[C@H](C)Oc3ccc(NC(=O)Cc4ccccc4)cc3C(=O)N([C@H](C)CO)C[C@H]2C)cc1	21	-4	-6	-2	0	1	/
COc1ccc2c3c([nH]c2c1)[C@@H](CO)N(Cc1ccccn1)CC31CN(C(=O)c2ccccn2)C1	/	/	/	/	?	-1	/
COCCNC(=O)C[C@@H]1CC[C@H](NS(=O)(=O)c2ccc(C)cc2)[C@@H](CO)O1	-3	-19	-6	-3	1	-1	/
c1ccc(Nc2ccccc2Nc2ccccn2)nc1	-3	/	/	14	/	-11	/
Oc1cccc2ccc(Nc3ccccn3)nc12	/	-41	94*	/	/	/	-9%
CC(C)c1cn(CC[C@@H]2CC[C@H](NS(=O)(=O)c3ccc(Cl)cc3)[C@@H](CO)O2)nn1	0	12	-2	-1	1	-1	/
Cc1ccc2c(c1)c1nc3ccccc3nc1n2CCN1CCOCC1	/	-2	63*	/	/	/	2%
O=C(Nc1cccc(F)c1)N1CC(=O)N2[C@H](C1)[C@@H](c1ccc(-c3ccc(F)cc3)cc1)[C@@H]2CO	2	/	/	0	-1	-1	/

Looked up by compound from the entries so far (4):
SMILES	RAD52 anneal inh	Yeast UUG start	RAD54 inh	SIRT5 inh	E-sel inducer	AF4-AF9 inh	DNA binding	others
c1ccc(Nc2ccccc2Nc2ccccn2)nc1	-3	/	/	14	/	-11	/
COCCNC(=O)C[C@@H]1CC[C@H](NS(=O)(=O)c2ccc(C)cc2)[C@@H](CO)O1	-3	-19	-6	-3	1	-1	/
O=C(Nc1cccc(F)c1)N1CC(=O)N2[C@H](C1)[C@@H](c1ccc(-c3ccc(F)cc3)cc1)[C@@H]2CO	2	/	/	0	-1	-1	/
COc1ccc2c3c([nH]c2c1)[C@@H](CO)N(Cc1ccccn1)CC31CN(C(=O)c2ccccn2)C1	/	/	/	/	?	-1	/

Next compounds
SMILES	RAD52 anneal inh	Yeast UUG start	RAD54 inh	SIRT5 inh	E-sel inducer	AF4-AF9 inh	DNA binding	others
CC1(C)Cc2c(sc3nnn(CC(=O)Nc4ccccc4)c(=O)c23)CO1	-29	-10	-16	-3	0	0	/
COc1ccccc1NC(=O)Cn1nnc2sc3c(c2c1=O)CC(C)(C)OC3	-23	-12	?	0	7	-4	-17%
O=C(CS(=O)(=O)c1ccccc1)Nc1ccc(Br)cn1	/	9	?	/	/	/	8%
Cc1ccnc(Nc2nc(-c3sc(C)nc3C)cs2)c1	-15	-20	?	2	2	6	-4%
O=C(C[C@H]1CC[C@@H]2[C@H](COC[C@H](O)CN2C(=O)c2ccccc2)O1)N1CCc2ccccc2C1	-11	20	3	-6	0	-4	/
COc1cccc(-c2ccc3c(c2)O[C@H](CN(C)C(=O)C2CC2)[C@H](C)CN([C@@H](C)CO)S3(=O)=O)c1	7	-1	-10	-5	2	0	/
CN(C)CCCNc1cc(-c2ccccc2)nc2cc(-c3cccc(F)c3)nn12	67*	-18	90*	-19	/	7	-25%	RAD52 DNA ctr=i
O=C(NCC[C@@H]1CC[C@@H](NC(=O)c2ccc3c(c2)OCO3)[C@H](CO)O1)Nc1ccc(Cl)cc1	5	-4	4	4	-1	10	/
CN(C)CCCNc1c2ccccc2nc2ccccc12	87*	11	99*	-12	/	2	7.6µM*	RAD52 DNA ctr=9.3µM*
c1ccc(CNc2ncnc3ccccc23)cc1	-7	-14	1	2	0	-4	/
c1ccc(CNc2c3ccccc3nc3ccccc23)cc1	84*	-16	83*	-6	0	3	29µM*	RAD52 DNA ctr=?
Cc1ccc(-c2nc(NCCCN(C)C)c3ccccc3n2)cc1	84*	-11	83*	-2	0	0	-17%	RAD52 DNA ctr=i
CC(C)OCCCNc1nc(-c2ccccc2)nc2ccccc12	0	-6	11	-1	1	-9	/
CCCNC(=O)N1CC(=O)N2[C@H](CO)[C@@H](c3ccc(C#CCC4CCCC4)cc3)[C@@H]2C1	-8	/	/	3	0	5	/
C[C@H](CO)N1C[C@H](C)[C@H](CN(C)Cc2ccc(C(=O)Nc3ccccc3N)cc2)Oc2ccc(NS(=O)(=O)c3cn(C)cn3)cc2C1=O	16	4	4	/	/	3	/
